Measurements from EP4831173A1, “TYK2 INHIBITOR AND USE THEROF” (dated 2026).
pIC50: −log10 of the molar value.

Amino acid sequences for entries named in this document (tags omitted). Residues count along the entry.
UniProt P29597, whole entry: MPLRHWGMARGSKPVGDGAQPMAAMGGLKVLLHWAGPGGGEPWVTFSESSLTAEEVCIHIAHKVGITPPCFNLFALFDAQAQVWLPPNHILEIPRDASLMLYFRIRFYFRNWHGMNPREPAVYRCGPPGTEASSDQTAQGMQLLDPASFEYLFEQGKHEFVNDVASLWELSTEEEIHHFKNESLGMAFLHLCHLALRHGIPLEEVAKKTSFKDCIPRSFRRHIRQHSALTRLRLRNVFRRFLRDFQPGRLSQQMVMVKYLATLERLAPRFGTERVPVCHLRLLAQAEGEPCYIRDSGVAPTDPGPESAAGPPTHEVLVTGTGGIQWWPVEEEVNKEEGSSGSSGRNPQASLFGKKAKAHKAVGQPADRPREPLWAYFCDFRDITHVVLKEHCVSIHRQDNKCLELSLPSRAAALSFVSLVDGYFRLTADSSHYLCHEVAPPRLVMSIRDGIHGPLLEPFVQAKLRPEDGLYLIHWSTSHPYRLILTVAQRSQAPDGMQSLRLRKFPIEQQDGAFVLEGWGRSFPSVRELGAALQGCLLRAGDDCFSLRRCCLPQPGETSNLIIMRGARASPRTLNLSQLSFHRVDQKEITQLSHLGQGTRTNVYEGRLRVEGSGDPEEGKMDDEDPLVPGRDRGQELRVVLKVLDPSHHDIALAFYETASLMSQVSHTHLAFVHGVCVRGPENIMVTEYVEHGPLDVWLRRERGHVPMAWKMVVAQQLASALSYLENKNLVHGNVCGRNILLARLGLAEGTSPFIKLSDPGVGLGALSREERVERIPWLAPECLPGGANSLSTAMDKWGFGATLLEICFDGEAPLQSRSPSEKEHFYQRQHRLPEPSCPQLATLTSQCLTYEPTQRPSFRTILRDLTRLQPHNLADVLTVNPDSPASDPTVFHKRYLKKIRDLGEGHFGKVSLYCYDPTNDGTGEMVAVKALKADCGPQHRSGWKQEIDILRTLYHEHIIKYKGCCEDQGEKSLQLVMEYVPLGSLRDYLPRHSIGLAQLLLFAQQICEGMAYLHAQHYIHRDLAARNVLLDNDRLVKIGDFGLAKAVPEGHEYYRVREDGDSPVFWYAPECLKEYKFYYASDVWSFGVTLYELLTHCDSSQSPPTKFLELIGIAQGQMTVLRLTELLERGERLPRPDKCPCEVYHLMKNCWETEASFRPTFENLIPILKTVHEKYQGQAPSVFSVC
UniProt P29597, 589-875 limits assumed: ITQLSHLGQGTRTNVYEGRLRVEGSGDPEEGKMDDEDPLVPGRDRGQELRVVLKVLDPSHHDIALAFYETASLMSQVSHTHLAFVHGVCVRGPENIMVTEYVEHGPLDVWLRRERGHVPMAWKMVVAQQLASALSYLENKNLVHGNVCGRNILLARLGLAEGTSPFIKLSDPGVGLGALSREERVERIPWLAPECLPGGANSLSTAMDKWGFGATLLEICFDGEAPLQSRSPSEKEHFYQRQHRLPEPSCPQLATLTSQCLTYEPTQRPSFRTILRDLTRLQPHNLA
UniProt P29597, 897-1176 limits assumed: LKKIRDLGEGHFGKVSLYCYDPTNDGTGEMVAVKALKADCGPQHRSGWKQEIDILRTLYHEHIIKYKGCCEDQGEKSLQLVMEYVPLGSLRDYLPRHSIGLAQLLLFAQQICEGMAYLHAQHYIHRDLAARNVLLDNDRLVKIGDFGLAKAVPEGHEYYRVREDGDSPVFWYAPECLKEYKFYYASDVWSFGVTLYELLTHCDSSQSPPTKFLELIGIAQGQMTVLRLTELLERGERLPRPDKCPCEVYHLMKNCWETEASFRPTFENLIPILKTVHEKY
UniProt P23458, whole entry partner: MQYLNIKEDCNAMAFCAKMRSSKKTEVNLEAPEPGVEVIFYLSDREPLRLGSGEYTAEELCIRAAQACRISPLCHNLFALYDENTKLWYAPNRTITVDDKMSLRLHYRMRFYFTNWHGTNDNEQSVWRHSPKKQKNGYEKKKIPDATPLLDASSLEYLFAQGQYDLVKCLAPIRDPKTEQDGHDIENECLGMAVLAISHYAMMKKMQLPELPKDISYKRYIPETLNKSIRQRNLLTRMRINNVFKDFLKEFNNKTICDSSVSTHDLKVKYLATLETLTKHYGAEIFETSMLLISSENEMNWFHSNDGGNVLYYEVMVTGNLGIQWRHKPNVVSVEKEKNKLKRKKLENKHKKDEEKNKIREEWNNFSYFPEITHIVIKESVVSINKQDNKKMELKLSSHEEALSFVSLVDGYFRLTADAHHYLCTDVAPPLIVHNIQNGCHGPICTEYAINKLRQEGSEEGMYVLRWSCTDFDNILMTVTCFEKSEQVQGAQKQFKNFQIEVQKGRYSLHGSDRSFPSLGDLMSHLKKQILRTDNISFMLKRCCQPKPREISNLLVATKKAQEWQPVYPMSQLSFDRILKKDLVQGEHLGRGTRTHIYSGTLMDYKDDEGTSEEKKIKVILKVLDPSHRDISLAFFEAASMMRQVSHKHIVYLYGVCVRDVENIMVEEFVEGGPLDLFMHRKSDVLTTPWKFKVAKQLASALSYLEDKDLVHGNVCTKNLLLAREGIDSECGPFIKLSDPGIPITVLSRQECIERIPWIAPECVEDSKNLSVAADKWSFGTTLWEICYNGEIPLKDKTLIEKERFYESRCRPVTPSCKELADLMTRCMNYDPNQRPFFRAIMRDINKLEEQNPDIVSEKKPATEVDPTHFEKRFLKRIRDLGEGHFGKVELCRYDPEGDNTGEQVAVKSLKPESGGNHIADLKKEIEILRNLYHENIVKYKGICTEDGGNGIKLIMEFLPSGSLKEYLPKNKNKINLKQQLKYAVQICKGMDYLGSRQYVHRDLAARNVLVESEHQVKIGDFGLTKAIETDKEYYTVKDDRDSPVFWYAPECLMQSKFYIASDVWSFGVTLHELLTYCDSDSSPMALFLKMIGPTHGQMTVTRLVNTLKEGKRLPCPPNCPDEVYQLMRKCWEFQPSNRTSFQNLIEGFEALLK
UniProt P23458, 875-1153 limits assumed: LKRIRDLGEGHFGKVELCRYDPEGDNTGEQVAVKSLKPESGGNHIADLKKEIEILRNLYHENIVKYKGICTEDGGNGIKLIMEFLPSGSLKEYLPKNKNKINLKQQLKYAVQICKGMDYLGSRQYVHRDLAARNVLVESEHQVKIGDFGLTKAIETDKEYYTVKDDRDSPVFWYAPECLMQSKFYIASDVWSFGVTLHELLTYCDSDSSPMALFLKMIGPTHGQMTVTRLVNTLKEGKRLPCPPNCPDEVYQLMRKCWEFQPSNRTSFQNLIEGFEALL
UniProt O60674, 849-1124 limits assumed: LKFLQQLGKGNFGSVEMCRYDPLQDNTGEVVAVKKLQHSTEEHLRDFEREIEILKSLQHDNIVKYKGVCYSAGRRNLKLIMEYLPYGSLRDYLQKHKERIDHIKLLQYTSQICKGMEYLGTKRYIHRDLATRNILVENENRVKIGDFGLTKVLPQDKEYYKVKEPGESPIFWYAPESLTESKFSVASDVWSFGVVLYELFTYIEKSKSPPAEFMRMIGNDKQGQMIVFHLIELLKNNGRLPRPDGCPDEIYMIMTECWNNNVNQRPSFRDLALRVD
UniProt P52333, 822-1111 limits assumed: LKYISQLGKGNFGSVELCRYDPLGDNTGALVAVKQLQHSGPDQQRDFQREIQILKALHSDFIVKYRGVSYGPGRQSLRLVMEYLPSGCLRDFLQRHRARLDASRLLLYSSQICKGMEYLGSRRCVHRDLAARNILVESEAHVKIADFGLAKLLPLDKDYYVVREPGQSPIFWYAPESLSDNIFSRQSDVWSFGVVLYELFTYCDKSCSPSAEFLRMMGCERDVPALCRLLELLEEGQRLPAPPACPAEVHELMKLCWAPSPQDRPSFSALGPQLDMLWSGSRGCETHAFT

Tests used:
TYK2 pseudokinase domain = TYK2 pseudokinase domain (Homo sapiens, UniProt P29597); assay: TYK2 JH2 pseudokinase domain binding affinity, fluorescence polarization (BPS Bioscience inhibitor screening kit); details: read-out: TYK2 JH2 IC50; polarized fluorescence, 25°C, 1 hour
Description: Experimental Example 1: Analysis of domain binding affinity to TYK2 pseudokinase
In order analyze the binding affinity of a test compound to the TYK2 pseudokinase domain, a polarized fluorescence-based TYK2 JH2 Pseudokinase Domain Inhibitor Screening Assay Kit (BPS bioscience) was used. The evaluation of the compound was performed according to the manufacturer's protocol, and the method thereof is as follows:
The test compound or control compound (Deucravacitnib) was serially diluted in DMSO, and then diluted 1/10 with distilled water to prepare 10x compound solution. After mixing the compound solution with Probe 1 prepared with a binding reaction buffer (JH2 binding buffer), a reaction was performed at 25°C for 10 minutes. Next, the reaction was initiated by adding a TYK2 pseudokinase domain enzyme prepared with the binding reaction buffer. The reaction was performed in a black 384-well plate at 25 °C for 1 hour. Polarized fluorescence was measured using Synergy neo (BioTek Instruments, Inc.).

JAK1 JH1 = JAK1 JH1 (Homo sapiens, UniProt P23458); assay: JAK kinase domain activity, ADP-Glo kinase assay, JAK1; details: read-out: JAK1 JH1 IC50, substrate IRS1 (Y608) peptide, top concentration 10000 nM
Description: (§1) Experimental Example 2: JAK Kinase Domain Activity Analysis
(§2) Kinase domain activity of the JAK family was analyzed using the ADP-Glo kinase assay kit (Promega). The evaluation of the compound was performed according to the manufacturer's protocol, and the method thereof is as follows:
(§3) A 10 mM test compound was diluted to 0.5 mM using DMSO in a 96-well plate, and then 5-fold serial dilutions were performed in DMSO. The diluted compound was diluted to 1/10 with 1x reaction buffer (composition) to prepare a 5x compound solution. 5 uL of the 5x compound solution was mixed with a substrate prepared in the reaction buffer (40 mM Tris, 20 mM MgCl2 and 0.1 mg/ml BSA, 0.05 mM DTT, pH 7.5), and an ATP mixture (10 uL). Next, an enzyme reaction was initiated by adding the JAK family enzyme (10 uL) prepared in the reaction buffer. A short rotation was performed to settle all the solution to the bottom of the plate. The final concentrations of the test compounds in the reaction mixture were 10000, 2000, 400, 80, 16, and 3.2 nM. The concentrations of the control compounds (Brepocitinib or Tofacitinib) were 10 times lower. The enzyme reaction was performed at 25°C for 1 hour. 25 uL of ADP-Glo reagent was added and the reaction was performed at 25 °C for 1 hour. The reaction mixed 50 uL of kinase detection reagent and was stopped, and a luminescence signal was measured using Synergy neo (BioTek Instruments, Inc.). […]

JAK2 JH1 = JAK2 JH1 (Homo sapiens, UniProt O60674); assay: JAK kinase domain activity, ADP-Glo kinase assay, JAK2; details: read-out: JAK2 JH1 IC50, substrate IGF1R peptide, top concentration 10000 nM
Description: as §1, §2, §3

TYK2/JAK1 = TYK2/JAK1 (Homo sapiens, UniProt P29597); assay: TYK2/JAK1 cell activity by IFNα2B stimulation, SEAP reporter in HEK-blue IFNα/β cells; details: HEK-blue IFNα/β cell line, human IFNα2B 1 U/mL, 24 hours, SEAP absorbance at 630 nm
Description: Experimental Example 3: Analysis of TYK2/JAKI cell activity by IFNα2B stimulation
An inhibition effect of TYK2/JAK1 activity of the test compound was analyzed using HEK-blue IFNα/β cell line (InvivoGen) that secretes SEAP (Secreted embryonic alkaline phosphatase) depending on the degree of cell stimulation. Cell culture and evaluation were performed according to the manufacturer's recommendations, and the method thereof is as follows: Cells cultured in a growth medium (Dulbecco's Modified Eagle Medium, 10% Fetal bovine serum, 1% Penicillin-Streptomycin, 100 ug/mL Normocin, 10 mg/mL Blasticidin, […] Zeocin) were collected and resuspended in a test medium (DMEM, 10% FBS, 1% Penicillin-Streptomycin), and 3.5x10^4 cells (160 uL) were dispensed into each well of a 96-well plate. After culturing for 24 hours in a 37°C CO2 incubator, 20 uL of a test compound or control compound (Deucravacitinib) diluted in the test medium was added, and then incubated at 37°C for 1 hour and 30 minutes. Next, 20 uL of human IFNα2B recombinant protein (PBL assay science) prepared with the test medium was added to each well (final concentration 1 U/mL) and then incubated at 37°C for 24 hours. 20 uL and 180 uL of cell supernatant were mixed with a QUANTI-blue reagent (InvivoGen) and then reacted at 37°C for 20-30 minutes. An absorbance at 630 nm was measured using Synergy neo (BioTek Instruments, Inc.). […] [Table 3] Result of TYK2/JAK1 cell activity by IFNα2B stimulation test

JAK3 JH1 = JAK3 JH1 (Homo sapiens, UniProt P52333); assay: JAK kinase domain activity, ADP-Glo kinase assay, JAK3; details: read-out: JAK3 JH1 IC50, substrate Poly (4:1 Glu-Tyr) peptide, top concentration 10000 nM
Description: as §1, §2, §3

TYK2 JH1 = TYK2 JH1 (Homo sapiens, UniProt P29597); assay: JAK kinase domain activity, ADP-Glo kinase assay, TYK2; details: read-out: TYK2 JH1 IC50, substrate IRS1 (Y608) peptide, top concentration 10000 nM
Description: as §1, §2, §3

| SMILES | pIC50 (TYK2 pseudokinase domain) | pIC50 (JAK1 JH1) | pIC50 (JAK2 JH1) | pIC50 (TYK2/JAK1) | pIC50 (JAK3 JH1) | pIC50 (TYK2 JH1) |
| --- | --- | --- | --- | --- | --- | --- |
| CC(=O)Nc1cc2c(-c3cc(OCC(F)(F)F)c(=O)n([C@@H](C)C(F)(F)F)n3)cn(C)c2cn1 | 7.36 | 5.36 | 5.78 | > 7.30 | < 5.00 | < 5.00 |
| CC(=O)Nc1cc2c(-c3cc(OCC(F)F)c(=O)n([C@@H](C)C(F)(F)F)n3)cn(C3CC3)c2cn1 | 7.85 | 5.04 | < 5.00 | > 7.30 | < 5.00 | < 5.00 |
| CC(=O)Nc1cc2c(-c3cc(OCC(C)C)c(=O)n(C(C)C(F)(F)F)n3)cn(C3CC3)c2cn1 (stereo not drawn) | 7.35 | < 5.00 | < 5.00 | > 7.30 | < 5.00 | < 5.00 |
| CC(=O)Nc1cc2c(-c3cc(OCC(C)(F)F)c(=O)n([C@@H](C)C(F)(F)F)n3)cn([C@H]3C[C@@H](C#N)C3)c2cn1 | 7.60 | < 5.00 | < 5.00 | > 7.30 | < 5.00 | < 5.00 |
| CC(=O)Nc1cc2c(-c3cc(OCC(C)(F)F)c(=O)n([C@@H](C)C(F)(F)F)n3)cn(C3CC3)c2cn1 | 7.96 | 5.11 | 5.13 | > 7.30 | < 5.00 | < 5.00 |
| CCCn1cc(-c2cc(OCC(C)(F)F)c(=O)n([C@@H](C)C(F)(F)F)n2)c2cc(NC(C)=O)ncc21 | 7.70 | < 5.00 | < 5.00 | > 7.30 | < 5.00 | < 5.00 |
| CCn1cc(-c2cc(OCC(F)(F)F)c(=O)n([C@@H](C)C(F)(F)F)n2)c2cc(NC(C)=O)ncc21 | 7.30 | < 5.00 | < 5.00 | > 7.30 | < 5.00 | < 5.00 |
| CC(=O)Nc1cc2c(-c3cc(N4CCC(F)(F)C4)c(=O)n([C@@H](C)C(F)(F)F)n3)cn(C)c2cn1 | 7.48 | 5.81 | 6.42 | > 7.30 | 5.11 | 5.80 |
| CC(=O)Nc1cc2c(-c3cc(OCC(C)C)c(=O)n(C(C)C(F)(F)F)n3)cn(C3CCC3)c2cn1 (stereo not drawn) | 7.28 | < 5.00 | < 5.00 | > 7.30 | < 5.00 | < 5.00 |
| CCn1cc(-c2cc(OCC(F)F)c(=O)n([C@H](C)C(F)(F)F)n2)c2cc(NC(C)=O)ncc21 | 6.45 | < 5.00 | < 5.00 | < 6.30 | < 5.00 | < 5.00 |
| CCn1cc(-c2cc(OCC(C)(C)F)c(=O)n([C@@H](C)C(F)(F)F)n2)c2cc(NC(C)=O)ncc21 | 7.24 | < 5.00 | 5.21 | > 7.30 | < 5.00 | < 5.00 |
| COC1CN(c2cc(-c3cn(C4CC(C#N)C4)c4cnc(NC(C)=O)cc34)nn(C3(C)CCOC3)c2=O)C1 (stereo not drawn) | 7.70 | < 5.00 | < 5.00 | > 7.30 | < 5.00 | < 5.00 |
